Experimental data published in patent US20090156501A1, “IDENTIFICATION OF LIGANDS BY SELECTIVE AMPLIFICATION OF CELLS TRANSFECTED WITH RECEPTORS” (ACADIA PHARMACEUTICALS, INC., priority 1999, published 2009).

Chains of the proteins cited; added tags and fusions are not shown. Residues count along the entry.
UniProt P21452, whole entry: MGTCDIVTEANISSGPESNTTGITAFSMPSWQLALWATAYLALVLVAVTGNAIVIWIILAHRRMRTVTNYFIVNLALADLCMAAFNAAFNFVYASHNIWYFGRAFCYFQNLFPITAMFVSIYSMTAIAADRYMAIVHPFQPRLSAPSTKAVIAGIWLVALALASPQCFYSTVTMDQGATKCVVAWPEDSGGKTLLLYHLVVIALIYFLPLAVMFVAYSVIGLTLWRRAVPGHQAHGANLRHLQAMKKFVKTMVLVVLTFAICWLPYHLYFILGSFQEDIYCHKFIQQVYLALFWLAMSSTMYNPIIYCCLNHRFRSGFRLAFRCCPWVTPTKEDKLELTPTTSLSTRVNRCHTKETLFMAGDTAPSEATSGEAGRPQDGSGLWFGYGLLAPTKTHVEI
UniProt P21450, 21-427: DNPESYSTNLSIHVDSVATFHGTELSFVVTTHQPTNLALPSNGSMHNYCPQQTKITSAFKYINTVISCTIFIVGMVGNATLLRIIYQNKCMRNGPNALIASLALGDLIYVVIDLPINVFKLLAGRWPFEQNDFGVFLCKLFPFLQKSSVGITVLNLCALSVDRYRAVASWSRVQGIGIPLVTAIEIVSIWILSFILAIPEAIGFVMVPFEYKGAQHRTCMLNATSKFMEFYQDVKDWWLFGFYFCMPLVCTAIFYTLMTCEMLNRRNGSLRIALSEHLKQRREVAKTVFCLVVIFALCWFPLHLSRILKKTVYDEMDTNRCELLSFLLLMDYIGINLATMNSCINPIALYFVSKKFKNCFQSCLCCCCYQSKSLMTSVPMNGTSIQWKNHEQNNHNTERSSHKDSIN
UniProt P25103, whole entry: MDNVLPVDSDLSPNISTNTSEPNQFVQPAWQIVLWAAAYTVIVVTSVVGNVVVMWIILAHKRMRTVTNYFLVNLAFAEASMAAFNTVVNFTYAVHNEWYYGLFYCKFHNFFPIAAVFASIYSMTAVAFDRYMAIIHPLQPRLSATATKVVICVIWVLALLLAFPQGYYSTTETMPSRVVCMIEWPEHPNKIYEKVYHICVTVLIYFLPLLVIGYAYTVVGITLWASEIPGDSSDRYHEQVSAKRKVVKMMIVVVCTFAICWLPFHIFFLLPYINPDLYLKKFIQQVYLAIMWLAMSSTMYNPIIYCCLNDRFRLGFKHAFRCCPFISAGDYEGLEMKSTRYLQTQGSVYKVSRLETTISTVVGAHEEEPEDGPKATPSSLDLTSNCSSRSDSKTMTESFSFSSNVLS

Columns and labels:
Tachykinin NK2 receptor = Tachykinin NK2 receptor (Homo sapiens, UniProt P21452); details: read-out: Ligand EC50 nM, NK2; 7-9 doses in duplicate
Endothelin ETB receptor = target: T1, Endothelin ETB receptor (Rattus norvegicus, UniProt P21451); assay: Single Receptor Format amplification assay, endothelin ETB; type: cell-based; details: 7-9 doses in duplicate; read-out: Ligand EC50 nM, ETB
T1 construct: expressed in transfected cells; host or cells: NIH 3T3
T1 sequence (P21451 27-442): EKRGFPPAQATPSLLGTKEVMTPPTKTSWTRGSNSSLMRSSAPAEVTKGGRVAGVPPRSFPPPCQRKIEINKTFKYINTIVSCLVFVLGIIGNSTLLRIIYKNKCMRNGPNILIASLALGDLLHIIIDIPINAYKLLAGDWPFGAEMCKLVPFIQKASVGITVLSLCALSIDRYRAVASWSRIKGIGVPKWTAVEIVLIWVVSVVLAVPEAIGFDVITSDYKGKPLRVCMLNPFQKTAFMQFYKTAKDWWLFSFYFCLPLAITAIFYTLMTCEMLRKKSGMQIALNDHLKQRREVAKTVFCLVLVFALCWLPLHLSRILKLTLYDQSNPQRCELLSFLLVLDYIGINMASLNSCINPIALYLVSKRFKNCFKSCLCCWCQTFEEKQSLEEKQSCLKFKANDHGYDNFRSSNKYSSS

Endothelin ETA receptor = target: T2, Endothelin ETA receptor (Bos taurus, UniProt P21450); assay: Single Receptor Format amplification assay, endothelin ETA; type: cell-based; details: 7-9 doses in duplicate; read-out: Ligand EC50 nM, ETA
T2 construct: expressed in transfected cells; host or cells: NIH 3T3

Tachykinin NK1 receptor = target: T3, Tachykinin NK1 receptor (Homo sapiens, UniProt P25103); assay: Single Receptor Format amplification assay, tachykinin NK1; type: cell-based; details: 7-9 doses in duplicate; read-out: Ligand EC50 nM, NK1
T3 construct: expressed in transfected cells; host or cells: NIH 3T3

neurokinin B
EC50 (Tachykinin NK2 receptor): 1.3 ± 0.7 nM

ET-1
EC50 (Endothelin ETB receptor): 0.24 ± 0.2 nM | EC50 (Endothelin ETA receptor): 0.079 ± 0.048 nM

neurokinin A
EC50 (Tachykinin NK1 receptor): 14 ± 5 nM
